{
  "source": "paper PMC7897442",
  "about": "“Mobility shift-based electrophoresis coupled with fluorescent detection enables real-time enzyme analysis of carbohydrate sulfatase activity” (Biochemical Journal, 2021)",
  "molecules": {"B1": {"name": "BT4656^S1_11 sulfatase (Ser77Cys) (Bacteroides thetaiotaomicron VPI-5482; S101C) (protein)", "chain": "MPATEKASAPHWSFLSSDVISIMKSNPSTLLLPLAALSLASCANPQKEETKRPNIIFMMTDDHTTQAMSCYGGNLIQTPNMDRIANEGIRFDNCYAVNALCGPSRACILTGKFSHENGFTDNASTFNGDQQTFPKLLQQAGYQTAMIGKWHLISEPQGFDHWSILSGQHEQGDYYDPDFWEDGKHIVEKGYATDIITDKAINFLENRDKNKPFCMMYHQKAPHRNWMPAPRHLGIFNNTIFPEPANLFDDYEGRGKAAREQDMSIEHTLTNDWDLKLLTREEMLKDTTNRLYSVYKRMPSEVQDKWDSAYAQRIAEYRKGDLKGKALISWKYQQYMRDYLATVLAVDENIGRLLNYLEKIGELDNTIIVYTSDQGFFLGEHGWFDKRFMYEECQRMPLIIRYPKAIKAGSTSSAISMNVDFAPTFLDFAGVEVPSDIQGASLKPVLENEGKTPADWRKAAYYHYYEYPAEHSVKRHYGIRTQDFKLIHFYNDIDEWEMYDMKADPREMNNIFGKAEYAKKQKELMQLLEETQKQYKDNDPDEKETVLFKGDRRLMENR", "notes": "Hexa His; made in house; host or cells: E. coli strain TUNER (Novagen)"}},
  "key": {"[1]": {"biological_target": "T1, BT4656^S1_11 sulfatase (Ser77Cys) (Bacteroides thetaiotaomicron, UniProt Q89YS5, S101C)", "T1 construct": "Hexa His; made in house; host or cells: E. coli strain TUNER (Novagen)", "T1 sequence (Q89YS5 1-558 S101C)": "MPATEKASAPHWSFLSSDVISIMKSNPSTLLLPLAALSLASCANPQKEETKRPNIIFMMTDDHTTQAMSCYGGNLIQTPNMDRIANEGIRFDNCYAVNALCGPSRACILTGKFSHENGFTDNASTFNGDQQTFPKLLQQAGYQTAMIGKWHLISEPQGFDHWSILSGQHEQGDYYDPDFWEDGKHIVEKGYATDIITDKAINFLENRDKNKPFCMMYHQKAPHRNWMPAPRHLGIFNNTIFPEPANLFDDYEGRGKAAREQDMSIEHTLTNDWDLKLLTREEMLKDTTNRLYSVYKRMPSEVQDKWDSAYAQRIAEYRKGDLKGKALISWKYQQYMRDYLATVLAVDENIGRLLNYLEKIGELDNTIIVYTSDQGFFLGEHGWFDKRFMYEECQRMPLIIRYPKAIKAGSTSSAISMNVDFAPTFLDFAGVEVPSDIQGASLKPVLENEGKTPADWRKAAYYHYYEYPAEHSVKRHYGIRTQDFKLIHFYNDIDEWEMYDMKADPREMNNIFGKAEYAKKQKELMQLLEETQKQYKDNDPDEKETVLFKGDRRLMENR", "assay": "CE-based microfluidic mobility shift desulfation assay (EZ Reader II) with 6S-GlcNAc-BODIPY substrate", "assay_type": "biochemical", "settings": "anions added to CE sulfatase enzyme assays; concentrations up to 10 mM", "source_text": "(§1) 6S-N-acetyl-D-glucosamine was labelled at its reducing end with BODIPY which has a maximal emission absorbance of ∼503 nm, which can be detected by the EZ Reader II platform via LED-induced fluorescence. Non-radioactive microfluidic mobility shift carbohydrate sulfation assays were optimised in solution with a 12-sipper chip coated with CR8 reagent and performed using a PerkinElmer EZ Reader II system employing EDTA-based separation buffer and real-time kinetic evaluation of substrate desulfation. Pressure and voltage settings were adjusted manually (1.8 psi, upstream voltage: 2250 V, downstream voltage: 500 V) to afford optimal separation in the reaction mixture of the sulfated substrate and unsulfated glycan product, with a sample (sip) time of 0.2 s, and total assay times appropriate for the experiment. Individual de-sulfation assays were carried out at 28°C and were pre-assembled in a 384-well plate in a volume of 80 μl in the presence of substrate concentrations between 0.5 and 20 μM with 100 mM Bis-Tris-Propane (BTP) or Tris, dependent on the pH required, and 150 mM NaCl, 0.02% (v/v) Brij-35 and 5 mM CaCl2. The amount of de-sulfation was directly calculated in real-time using EZ Reader II software by measuring the sulfated carbohydrate : unsulfated carbohydrate ratio at each time point during the assay. […]"}, "[2]": {"substrate": "CC(=O)N[C@@H]1[C@@H](O)[C@H](O)[C@@H](COS(=O)(=O)O)O[C@H]1NNC(=O)CCC1=[N+]2C(=Cc3c(C)cc(C)n3[B-]2(F)F)C=C1", "assay": "CE-based microfluidic mobility shift desulfation assay (EZ Reader II) with 6S-GlcNAc-BODIPY substrate", "assay_type": "biochemical, Bacteroides thetaiotaomicron", "settings": "other: 100 nM BT4656^S1_11; substrate 0.5, 1 and 2 μM; technical triplicates; 28.0 °C", "source_text": "as §1"}},
  "data": [
    {"molecule": "O=S(=O)(O)O", "note": "[sulfate]", "values": [
      {"measurement": "inhibition of BT4656^S1_11 by inorganic anions", "setting": "[1]", "value": "significant inhibition only at high (10 mM) concentrations"}
    ]},
    {"molecule": "phosphate", "values": [
      {"measurement": "inhibition of BT4656^S1_11 by inorganic anions", "setting": "[1]", "value": "significant inhibition only at high (10 mM) concentrations"}
    ]},
    {"molecule": "B1", "values": [
      {"measurement": "kcat/Km", "setting": "[2]", "value": "6.4 × 10^4 min^–1 M^–1"}
    ]}
  ]
}
